Experiments:
[1] = biological target: recombinant human TSPO (Homo sapiens, UniProt P30536); assay: Surface plasmon resonance (SPR) binding affinity; settings: mean ± SD of three measurements
[2] = Pharmacokinetic study in SD male rats; settings: 10 mg/kg, n = 5, Table S3
[3] = biological target: hERG channel (Homo sapiens, UniProt Q12809); assay: hERG inhibition assay (automated patch-clamp, CHO-K1 Tet-On hERG cells); settings: read-out: hERG (IC50), ± SD
[4] = system: HT22 cells; assay: MTT assay: HT22 cell viability with compound alone; format: cell-based, mouse; settings: HT22 cell viability after 24 h of treatment with 5 μM compound, no Aβ
[5] = system: acute AD model mice (Aβ1-42 ICV injected ICR mice); assay: Y-maze spontaneous alternation test in acute AD model mice; settings: 30 mg/kg daily, 6 days
[6] = system: HT22 cells treated with Aβ; assay: Cellular ROS assay (DCFDA): inhibition of Aβ-induced ROS generation; settings: 5 μM compound
[7] = biological target: CYP3A4 (Homo sapiens, UniProt P08684); assay: CYP inhibition assay (Vivid CYP450 screening kit); settings: 10 μM compound
[8] = biological target: CYP2C9 (Homo sapiens, UniProt P11712); assay: CYP inhibition assay (Vivid CYP450 screening kit); settings: 10 μM compound
[9] = biological target: CYP2D6 (Homo sapiens, UniProt P10635); assay: CYP inhibition assay (Vivid CYP450 screening kit); settings: 10 μM compound
[10] = biological target: CYP1A2 (Homo sapiens, UniProt P05177); assay: CYP inhibition assay (Vivid CYP450 screening kit); settings: 10 μM compound
[11] = Liver microsomal stability; settings: 1 µM compound, 0.5 mg/mL microsomes, 37 °C

By UniProt entry, the sequences of proteins in these tests, tags left out. Residues count along the entry.
UniProt P30536, whole entry: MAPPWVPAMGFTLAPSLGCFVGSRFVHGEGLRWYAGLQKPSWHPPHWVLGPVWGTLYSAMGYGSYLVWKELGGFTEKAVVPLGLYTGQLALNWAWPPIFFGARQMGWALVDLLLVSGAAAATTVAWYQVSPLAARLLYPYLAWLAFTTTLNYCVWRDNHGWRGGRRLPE
UniProt Q12809, whole entry: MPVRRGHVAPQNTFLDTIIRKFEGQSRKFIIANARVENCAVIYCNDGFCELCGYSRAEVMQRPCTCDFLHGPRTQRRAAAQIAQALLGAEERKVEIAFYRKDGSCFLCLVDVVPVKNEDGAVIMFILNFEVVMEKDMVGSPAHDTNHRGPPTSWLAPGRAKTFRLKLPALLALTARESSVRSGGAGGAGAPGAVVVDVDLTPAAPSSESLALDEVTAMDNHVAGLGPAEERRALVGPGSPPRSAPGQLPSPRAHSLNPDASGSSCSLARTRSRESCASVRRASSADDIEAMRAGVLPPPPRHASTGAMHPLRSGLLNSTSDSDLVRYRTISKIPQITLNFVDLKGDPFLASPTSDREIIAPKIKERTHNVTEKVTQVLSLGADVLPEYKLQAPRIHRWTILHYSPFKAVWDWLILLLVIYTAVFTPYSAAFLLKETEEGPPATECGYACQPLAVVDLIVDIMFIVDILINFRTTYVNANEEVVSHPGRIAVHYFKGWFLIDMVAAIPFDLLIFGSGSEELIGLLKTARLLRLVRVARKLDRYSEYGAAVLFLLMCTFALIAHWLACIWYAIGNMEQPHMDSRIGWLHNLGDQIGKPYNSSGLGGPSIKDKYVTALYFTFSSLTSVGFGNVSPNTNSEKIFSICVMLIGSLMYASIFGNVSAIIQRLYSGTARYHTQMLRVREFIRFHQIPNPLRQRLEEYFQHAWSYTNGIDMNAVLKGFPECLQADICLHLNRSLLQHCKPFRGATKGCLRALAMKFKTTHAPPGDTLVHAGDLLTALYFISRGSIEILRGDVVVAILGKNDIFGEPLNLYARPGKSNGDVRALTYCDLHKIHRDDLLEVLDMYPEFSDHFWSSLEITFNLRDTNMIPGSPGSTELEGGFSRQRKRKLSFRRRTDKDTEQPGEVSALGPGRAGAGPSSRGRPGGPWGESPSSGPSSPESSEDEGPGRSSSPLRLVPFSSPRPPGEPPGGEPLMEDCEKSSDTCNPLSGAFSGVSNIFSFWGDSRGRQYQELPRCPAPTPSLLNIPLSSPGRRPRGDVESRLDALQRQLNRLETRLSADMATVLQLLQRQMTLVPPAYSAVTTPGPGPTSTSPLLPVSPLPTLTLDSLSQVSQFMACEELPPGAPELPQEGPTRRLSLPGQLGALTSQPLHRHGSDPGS
UniProt P08684, 2-503 limits assumed: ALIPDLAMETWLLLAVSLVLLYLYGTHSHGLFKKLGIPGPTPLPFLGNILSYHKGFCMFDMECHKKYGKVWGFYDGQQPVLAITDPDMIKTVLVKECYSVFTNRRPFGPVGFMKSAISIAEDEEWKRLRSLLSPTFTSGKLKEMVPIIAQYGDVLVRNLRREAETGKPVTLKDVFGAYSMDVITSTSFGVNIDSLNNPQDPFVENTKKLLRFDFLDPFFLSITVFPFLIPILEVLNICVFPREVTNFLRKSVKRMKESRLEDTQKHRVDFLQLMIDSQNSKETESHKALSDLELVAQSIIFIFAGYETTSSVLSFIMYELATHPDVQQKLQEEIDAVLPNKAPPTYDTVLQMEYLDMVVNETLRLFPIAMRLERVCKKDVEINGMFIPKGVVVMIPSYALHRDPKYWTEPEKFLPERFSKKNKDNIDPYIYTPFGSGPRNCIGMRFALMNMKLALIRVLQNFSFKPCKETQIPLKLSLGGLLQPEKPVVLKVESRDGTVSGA
UniProt P11712, whole entry: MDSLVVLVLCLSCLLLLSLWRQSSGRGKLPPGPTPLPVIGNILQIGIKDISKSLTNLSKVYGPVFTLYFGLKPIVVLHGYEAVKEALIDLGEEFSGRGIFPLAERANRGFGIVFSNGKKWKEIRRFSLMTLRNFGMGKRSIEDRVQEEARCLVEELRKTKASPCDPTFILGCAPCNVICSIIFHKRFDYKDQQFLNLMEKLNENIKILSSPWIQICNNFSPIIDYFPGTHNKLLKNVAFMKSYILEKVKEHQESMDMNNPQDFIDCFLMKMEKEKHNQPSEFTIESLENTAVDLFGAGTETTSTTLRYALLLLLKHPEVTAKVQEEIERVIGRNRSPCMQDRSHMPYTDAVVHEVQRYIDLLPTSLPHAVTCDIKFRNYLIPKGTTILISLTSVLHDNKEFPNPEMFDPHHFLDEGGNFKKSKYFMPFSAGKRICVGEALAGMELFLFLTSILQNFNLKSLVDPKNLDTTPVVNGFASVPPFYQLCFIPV
UniProt P10635, whole entry: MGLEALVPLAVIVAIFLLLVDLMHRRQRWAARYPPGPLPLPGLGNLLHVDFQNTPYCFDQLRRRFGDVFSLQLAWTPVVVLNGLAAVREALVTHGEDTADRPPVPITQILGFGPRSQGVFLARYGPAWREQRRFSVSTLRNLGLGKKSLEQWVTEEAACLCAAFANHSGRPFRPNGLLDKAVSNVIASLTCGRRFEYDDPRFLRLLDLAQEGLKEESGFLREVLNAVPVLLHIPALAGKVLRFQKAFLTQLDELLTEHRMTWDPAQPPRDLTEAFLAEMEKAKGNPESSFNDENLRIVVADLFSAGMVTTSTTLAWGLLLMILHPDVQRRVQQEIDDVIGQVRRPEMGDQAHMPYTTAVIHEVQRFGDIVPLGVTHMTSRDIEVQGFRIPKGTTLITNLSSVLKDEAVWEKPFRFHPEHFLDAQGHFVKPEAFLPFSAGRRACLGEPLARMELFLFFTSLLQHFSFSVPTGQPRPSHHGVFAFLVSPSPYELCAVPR
UniProt P05177, 2-516 limits assumed: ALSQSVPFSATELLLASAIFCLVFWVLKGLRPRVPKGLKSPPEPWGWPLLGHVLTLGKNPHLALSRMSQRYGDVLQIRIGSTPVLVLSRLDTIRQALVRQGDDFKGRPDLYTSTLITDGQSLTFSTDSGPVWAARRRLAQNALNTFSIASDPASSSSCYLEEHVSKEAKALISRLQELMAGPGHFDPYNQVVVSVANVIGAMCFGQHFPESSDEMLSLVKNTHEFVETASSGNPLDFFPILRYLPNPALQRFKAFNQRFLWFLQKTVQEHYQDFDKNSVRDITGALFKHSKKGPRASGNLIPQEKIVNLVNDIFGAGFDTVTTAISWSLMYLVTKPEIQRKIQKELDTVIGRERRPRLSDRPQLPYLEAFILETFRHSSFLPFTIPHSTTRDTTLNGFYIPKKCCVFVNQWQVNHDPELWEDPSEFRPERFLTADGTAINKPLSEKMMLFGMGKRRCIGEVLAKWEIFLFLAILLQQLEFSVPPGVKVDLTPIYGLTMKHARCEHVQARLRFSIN

Kd [1]: 1690 nM | AUC0–∞ ([2]; intravenous): 330.66 ± 93.61 mg·min/mL | AUClast ([2]; intravenous): 273.60 ± 64.45 mg·min/mL | CL ([2]; intravenous): 32.525±10.08 ml/mim/kg | Terminal half-life ([2]; intravenous): 2.8972 ± 0.5397 h | Vss ([2]; intravenous): 7.73686 L/kg | F (bioavailability) ([2]; oral vs intravenous): 8.0% | AUC0–∞ ([2]; oral): 26.59 ± 22.32 mg·min/mL | AUClast ([2]; oral): 11.67 ± 5.99 mg·min/mL | Terminal half-life ([2]; oral): 7.4683 ± 0.46 h | Tmax ([2]; oral): 0.8 h | CYP450 (% remaining Activity at 10 μM) CYP3A4 [7]: 158.6% | CYP450 (% remaining Activity at 10 μM) CYP2C9 [8]: 63.8% | CYP450 (% remaining Activity at 10 μM) CYP2D6 [9]: 98.9% | CYP450 (% remaining Activity at 10 μM) CYP1A2 [10]: 92.0% | Human Liver Microsomal Stability (% remaining after 30 min) [11]: 62.9%
SMILES: COc1ccc(-n2c(SCC(=O)Nc3ccc(F)cc3F)nc3sc4c(c3c2=O)CCN(C(C)=O)C4)cc1
IC50 [3]: 4230 nM | MTT Viability (%) [4]: 120% | Y-maze activity in acute AD model (in words) [5]: did not show any comparable activity | ROS Inhibition (%) [6]: 136%
